# Source: patent US6558922B1, “Methods and compositions for production of floral scent compounds” (Purdue Research Foundation, priority 1999, dated 2003)
# Like-named read-outs stand apart in the source and are kept apart here.
substance,measurement,setting,value
S-adenosyl-L-methionine:benzoic acid carboxyl methyltransferase [BAMT],Stability,30-min incubation at 65° C.,completely lost activity
same,Stability,30 min at 20° C.,100%
same,Stability,30 min at 30° C.,60%
same,Stability,30 min at 42° C.,20%
same,Storage stability,stored at −80° C.,highly stable for several months
same,Storage stability,stored in buffer A at 4° C.,stable for one week
